According to US20240368664A1, “LIVE YEAST BIOSENSORS AND METHODS OF USE THEREOF” (priority 2021, published 2024):

Assay: Cyclic voltammetry of peptides and copper-peptide complexes
Format: physicochemical
Details: 500 μM peptide in 10 mM KCl; scan rates 0.2, 0.1, 0.05 V/s

SMILES: CC(C)C[C@H](NC(=O)[C@H](CCCNC(=N)N)NC(=O)[C@H](Cc1ccccc1)NC(=O)CN)C(=O)N[C@H](C(=O)N[C@@H](CC(N)=O)C(=O)N[C@@H](Cc1ccccc1)C(=O)NCC(=O)N[C@@H](Cc1ccc(O)cc1)C(=O)N[C@@H](Cc1ccccc1)C(=O)N[C@@H](CCC(=O)O)C(=O)N1CCC[C@H]1C(=O)NCC(=O)O)[C@@H](C)O [CaPep]
- potential peaks in cyclic voltammogram: None of the tested peptides showed any unique and distinguishable potential peaks
